Experimental data as given in ChEMBL document CHEMBL2057127, “Design, synthesis, modeling, biological evaluation and photoaffinity labeling studies of novel series of photoreactive benzamide probes for histone deacetylase 2” (Bioorg Med Chem Lett, 2012).

Chains of the proteins cited; added tags and fusions are not shown.
UniProt Q92769, whole entry: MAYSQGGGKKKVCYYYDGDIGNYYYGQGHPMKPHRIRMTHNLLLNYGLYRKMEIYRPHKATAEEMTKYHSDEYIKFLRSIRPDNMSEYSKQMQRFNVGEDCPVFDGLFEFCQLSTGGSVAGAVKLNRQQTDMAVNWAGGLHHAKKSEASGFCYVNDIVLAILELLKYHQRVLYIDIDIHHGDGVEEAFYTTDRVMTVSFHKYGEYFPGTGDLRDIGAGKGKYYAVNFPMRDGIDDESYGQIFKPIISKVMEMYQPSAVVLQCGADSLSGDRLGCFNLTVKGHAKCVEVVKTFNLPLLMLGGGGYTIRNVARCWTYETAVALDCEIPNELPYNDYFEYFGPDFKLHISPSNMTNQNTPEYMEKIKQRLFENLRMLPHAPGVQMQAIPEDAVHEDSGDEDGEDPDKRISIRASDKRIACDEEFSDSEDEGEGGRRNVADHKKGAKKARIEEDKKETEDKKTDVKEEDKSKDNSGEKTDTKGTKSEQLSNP
UniProt Q13547, whole entry: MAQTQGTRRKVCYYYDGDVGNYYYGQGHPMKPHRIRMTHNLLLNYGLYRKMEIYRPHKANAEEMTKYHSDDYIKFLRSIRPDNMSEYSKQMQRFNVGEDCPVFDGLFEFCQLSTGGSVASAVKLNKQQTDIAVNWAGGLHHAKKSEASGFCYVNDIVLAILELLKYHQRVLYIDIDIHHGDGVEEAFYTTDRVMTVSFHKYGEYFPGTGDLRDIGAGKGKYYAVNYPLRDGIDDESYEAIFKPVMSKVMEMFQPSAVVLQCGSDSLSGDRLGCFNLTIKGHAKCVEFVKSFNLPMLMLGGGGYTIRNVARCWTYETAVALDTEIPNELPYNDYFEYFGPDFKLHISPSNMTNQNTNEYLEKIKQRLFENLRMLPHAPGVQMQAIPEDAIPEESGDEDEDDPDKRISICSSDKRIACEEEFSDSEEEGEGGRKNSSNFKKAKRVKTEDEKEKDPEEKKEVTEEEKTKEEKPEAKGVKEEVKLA

Key:
Histone deacetylase 2 [1] = target: T1, Histone deacetylase 2 (Homo sapiens, UniProt Q92769)
Histone deacetylase 2 [2] = target: T1, Histone deacetylase 2; remark: listed apart in the source
Histone deacetylase 1 [3] = target: T2, Histone deacetylase 1 (Homo sapiens, UniProt Q13547); assay: Inhibition of human recombinant HDAC1 using Boc-L-Lys (Ac)-AMC as substrate preincubated with compound for 5 mins measured after 35 mins by spectrofluorometric analysis
Histone deacetylase 2 [4] = target: T1, Histone deacetylase 2; remark: listed apart in the source
Histone deacetylase 1 [5] = target: T2, Histone deacetylase 1; assay: Inhibition of human recombinant HDAC1 using Boc-L-Lys (Ac)-AMC as substrate preincubated with compound for 3 hrs measured after 35 mins by spectrofluorometric analysis

Row | SMILES | IC50 (Histone deacetylase 2 [1]) | IC50 (Histone deacetylase 2 [2]) | IC50 (Histone deacetylase 1 [3]) | IC50 (Histone deacetylase 2 [4]) | IC50 (Histone deacetylase 1 [5])
1 | [N-]=[N+]=NCc1cc(COC(=O)NCc2ccc(C(=O)Nc3cc(-c4cccs4)ccc3N)cc2)cc(N=[N+]=[N-])c1 | 7100 nM | 300 nM | 2800 nM | 1000 nM | 1210 nM
2 | [N-]=[N+]=Nc1ccc(C(=O)Nc2cc(-c3cccs3)ccc2N)cc1 | 3200 nM | – | – | 690 nM | –
3 | [N-]=[N+]=Nc1ccc(C(=O)Nc2cc(-c3ccccc3)ccc2N)cc1 | 5130 nM | – | – | 1050 nM | –
4 | [N-]=[N+]=NCc1cc(COC(=O)NCc2ccc(C(=O)Nc3cc(-c4ccccc4)ccc3N)cc2)cc(N=[N+]=[N-])c1 | 7000 nM | 350 nM | – | 1100 nM | –
5 | Nc1ccc(-c2ccccc2)cc1NC(=O)c1ccc(CNC(=O)OCc2ccccc2)cc1 | 38000 nM | 740 nM | 14500 nM | 14000 nM | 1880 nM
